According to PubChem BioAssay AID2227 (Johns Hopkins Ion Channel Center, 2009):
Only a part is listed here, and it is no random draw. The source made the active and inactive calls.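 The calls were made as follows: active = B-score of calcium response area above 5 SD of library B-scores, with initial fluorescence ratio within 5 SD of library; inactive = the rest.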

Sequences of proteins named here, by UniProt entry; tags and fusion partners are left off.
UniProt Q9QUQ5, whole entry: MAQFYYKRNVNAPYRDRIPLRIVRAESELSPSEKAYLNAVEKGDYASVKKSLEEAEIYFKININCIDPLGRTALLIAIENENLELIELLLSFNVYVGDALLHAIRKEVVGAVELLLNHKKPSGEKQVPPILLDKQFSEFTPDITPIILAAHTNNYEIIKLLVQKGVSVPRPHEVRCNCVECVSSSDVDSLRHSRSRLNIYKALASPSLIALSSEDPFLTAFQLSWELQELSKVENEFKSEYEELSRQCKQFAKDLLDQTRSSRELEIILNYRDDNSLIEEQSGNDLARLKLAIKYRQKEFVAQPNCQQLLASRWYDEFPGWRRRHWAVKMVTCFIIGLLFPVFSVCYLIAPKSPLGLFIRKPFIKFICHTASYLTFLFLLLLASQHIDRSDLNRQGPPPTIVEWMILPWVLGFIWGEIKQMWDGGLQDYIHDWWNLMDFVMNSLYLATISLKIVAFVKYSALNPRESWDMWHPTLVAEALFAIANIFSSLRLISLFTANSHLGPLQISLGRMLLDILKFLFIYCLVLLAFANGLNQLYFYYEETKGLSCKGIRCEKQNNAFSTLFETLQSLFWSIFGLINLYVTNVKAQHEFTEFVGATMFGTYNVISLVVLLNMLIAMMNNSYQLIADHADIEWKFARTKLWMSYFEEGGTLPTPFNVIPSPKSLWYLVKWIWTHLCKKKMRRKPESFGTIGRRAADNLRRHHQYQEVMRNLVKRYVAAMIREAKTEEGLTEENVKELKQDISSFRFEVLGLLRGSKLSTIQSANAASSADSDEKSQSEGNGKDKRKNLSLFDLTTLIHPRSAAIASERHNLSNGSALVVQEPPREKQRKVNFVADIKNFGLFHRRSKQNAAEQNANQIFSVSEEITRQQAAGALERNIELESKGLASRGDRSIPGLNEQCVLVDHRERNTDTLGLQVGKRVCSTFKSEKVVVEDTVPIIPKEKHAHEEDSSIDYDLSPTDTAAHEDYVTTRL

What follows are compounds tested against Short transient receptor potential channel 4 (Mus musculus) (UniProt Q9QUQ5) (assay: TRPC4 channel potentiators under submaximal DAMGO – cell-based, mouse TRPC4beta, HEK293 mu-opioid, Fluo-4 calcium, primary screen (AID 2227;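 as to B-score: B-score of integrated fluorescence ratio over time as area under calcium response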)). Conditions: DAMGO EC20, Fluo-4 Ca2+ flux, at 10 µM; stronger effect = higher value.

Compound | outcome | B-score
Cc1cccc(C)c1OP(C)(N)=O (configuration not stated) | inactive | –
O=[N+]([O-])c1ccc2c(c1)C=Nc1ccccc1O2 | inactive | –
Cc1ccc2nc3c(c(C)c2c1)CC(C(Cl)Cl)S3 (configuration not stated) | inactive | –
CCOC(=O)c1ccc(NP(C)(=O)Oc2ccccc2)cc1 (configuration not stated) | inactive | –
ClCCSc1nnc(-c2cccnc2)o1 | inactive | –
COc1ccccc1OP(C)(=O)Nc1ccc(C)cc1 (configuration not stated) | inactive | –
Cc1ccc(NP(C)(=O)Oc2ccccc2)c(C)c1 (configuration not stated) | inactive | –
CC(C)c1ccc(OP(=O)(Nc2ccccn2)Oc2ccccc2F)cc1 (configuration not stated) | inactive | –
CC(C)NC(=O)NP(=O)(Oc1ccccc1)Oc1ccccc1 | inactive | –
COc1ccccc1OP(C)(=O)Nc1cc(Cl)ccc1C (configuration not stated) | inactive | –
CCN(CC)C(=S)SC(NC=O)C(Cl)(Cl)Cl (configuration not stated) | inactive | –
COc1ccc(OP(C)(=O)Nc2cccc(F)c2)cc1 (configuration not stated) | inactive | –
O=[N+]([O-])c1cc([N+](=O)[O-])c(-c2ccn[nH]2)s1 | inactive | –
Cc1cc(C)cc(OP(C)(N)=O)c1 (configuration not stated) | inactive | –
Cc1c2c(nc3ccccc13)SC(C(Cl)Cl)C2 (configuration not stated) | inactive | –
O=C(OC1CN2CCC1CC2)C12CC3CC(CC(C3)C1)C2 (configuration not stated) | inactive | –
Cc1cc(=O)[nH]c(N[N+](=O)[O-])n1 | inactive | –
CCN(CC)CCCOC(=O)C(O)(c1ccccc1)c1ccccc1 | – | active: 18
COc1ccc2nc(NP(=O)(c3ccccc3)c3ccccc3)sc2c1 | inactive | –
COc1cc(I)ccc1[As](=O)(O)O | inactive | –
COc1ccc(N/C(=N/P(=O)(N2CCOCC2)N2CCOCC2)N2CCOCC2)cc1 | inactive | –
COP1(=S)c2c(C)nn(CCC#N)c2N=C(c2ccc(F)cc2)N1C (configuration not stated) | inactive | –
CP(=O)(Nc1ccc(SC(F)(F)F)cc1)Oc1ccc(Cl)cc1 (configuration not stated) | inactive | –
Cc1cccc(C)c1OP(C)(=O)Nc1ccc(SC(F)(F)F)cc1 (configuration not stated) | inactive | –

Compound | outcome | B-score
CP(=O)(Oc1ccccc1)OC(c1ccccc1)C(F)(F)F (configuration not stated) | inactive | –
CP(=O)(NC(=O)Nc1ccccc1)Oc1ccccc1 (configuration not stated) | inactive | –
O=C(COc1ccccc1)OC1CN2CCC1CC2 (configuration not stated) | inactive | –
CCc1ccc(OP(C)(=O)N2CCN(c3ccc([N+](=O)[O-])cc3)CC2)cc1 (configuration not stated) | inactive | –
O=C(Nc1ccncc1[N+](=O)[O-])c1ccc([N+](=O)[O-])cc1[N+](=O)[O-] | inactive | –
Cc1cc(C)cc(OP(C)(=O)Nc2ccc(SC(F)(F)F)cc2)c1 (configuration not stated) | inactive | –
O=C(OC1CN2CCC1CC2)c1cccc([N+](=O)[O-])c1 (configuration not stated) | inactive | –
CCOP(C)(=S)SCC(=O)NC(C)C(=O)O (configuration not stated) | inactive | –
O=[N+]([O-])c1cc([N+](=O)[O-])c(O)c([N+](=O)[O-])c1.c1ccc(Oc2ccncc2)cc1 | inactive | –
CCOC(=O)c1ccc(NC(=O)C(C)(CCl)SC)cc1 (configuration not stated) | inactive | –
CCOC(=O)c1ccc(NP(C)(=O)Oc2ccc(OC)cc2)cc1 (configuration not stated) | inactive | –
CCC(C)N(CC(C)C)C(=S)SC(NC(C)=O)C(Cl)(Cl)Cl (configuration not stated) | inactive | –
CP(=O)(Nc1ccccn1)Oc1ccc(Cl)cc1 (configuration not stated) | inactive | –
CCOC(=O)Nc1ccc([As](=O)(O)O)c(O)c1 | inactive | –
CCCCOc1ccc(C(=O)NCC2(N3CCCCC3)CCCCC2)cc1OC | inactive | –
Cc1cc(SC(NC(=O)c2ccccc2)C(Cl)(Cl)Cl)nc(C(C)C)n1 (configuration not stated) | inactive | –
CP(=S)(Nn1cnnc1)Oc1ccccc1 (configuration not stated) | inactive | –
CCOC(=O)Nc1cccc([As](=O)(O)O)c1 | inactive | –
Cc1cc(SC(NC=O)C(Cl)(Cl)Cl)ncn1 (configuration not stated) | inactive | –
O=P(Nc1ccccn1)(c1cccc2ccccc12)c1cccc2ccccc12 | inactive | –
COc1ccccc1OP(C)(=O)Nc1ccccc1 (configuration not stated) | inactive | –
CP(=O)(Nc1ccccc1Br)Oc1ccccc1 (configuration not stated) | inactive | –
O=[N+]([O-])c1ccc(Nc2ccc(Oc3ccc([N+](=O)[O-])cc3[N+](=O)[O-])cc2)c([N+](=O)[O-])c1 | inactive | –
